Test: Apparent permeability across apical to basolateral side in MDCK cells expressing MDR1
Assay type: ADME, cell-based, Canis lupus familiaris
Conditions: dog

`COc1cc(C(=O)N[C@@H]2CCc3ccc(-c4cn5c(n4)CCC5)cc32)cc(OC)c1C` showed a Papp of 9.6 ×10⁻⁶ cm/s.

— ChEMBL document CHEMBL4251753, “Discovery of Potent 2-Aryl-6,7-dihydro-5 H-pyrrolo[1,2- a]imidazoles as WDR5-WIN-Site Inhibitors Using Fragment-Based Methods and Structure-Based Design” (J Med Chem, 2018)
